Tests used:
[1] = tested on: rat Leydig cells; test: Testosterone concentration in rat Leydig cells by ELISA; format: cell-based; conditions: incubated an hour, Eurycoma longifolia 75 ug/ml, Hcg −0.05 IU/ml, Lac 10 ul/ml
Procedure: Eurycoma longifolia treatment on testosterone concentration in rat Leydig Cells, as measured by in Enzyme Linked Immuno-Sorbent Assay (ELISA) Analysis. Rat Leydig cells were incubated with either Hcg, Lac or Eurycoma longifolia. After incubation, the concentration of testosterone was measured. Five×10 4 cells/100 ul of rat leydig cells were used. 75 ug/ml of Eurycoma longifolia were added into cell cultures medium. Cells were treated with the samples and controls and incubated for an hour with 5% CO2 at 37 C. The cells were then assayed by a standard immunology assay procedure, for the determination of testosterone concentration.

[2] = tested on: CYP17 gene; test: Real Time RT-PCR gene expression analysis in rat Leydig cells; format: cell-based; conditions: normalized to 5sRNA housekeeping gene and to control, mean of triplicate incubations ±SD
Excerpt: Gene expression analysis using Real Time Reverse Transcription Polymerase Chain Reaction (RT-PCR) is based on detection and quantitation of a fluorescent signal, which increases in direct proportion to the amount of PCR product n a reaction. In this study, the signal used is a double-stranded DNA specific fluoresce dye (SYBR Green 1). Real Time RT-PCR allows researcher to examine the relative level of gene expression and variation between samples. The objective of this analysis is to observe the effect of Eurycoma longifolia towards gene expression level. As for this study, the genes of interest are the genes involved in testosterone/androgen biosynthesis pathways and also spermatogenesis.
Prior to Real Time RT-PCR, rat Leydig cells were given the same treatment and incubation as in the EIA experiment. At the end of the incubation, culture media were removed and RNA was extracted from the cells. […]
The housekeeping gene acts as an endogenous control in the assay to correct any sample to sample variation or errors in sample quantitation. […]
Relative values were obtained by dividing the normalized value of each treated samples with the normalized control value for each corresponding group. […] All values were statistically evaluated using SPSS version 11.0; differences were significant at p<0.01 […]

Hcg: positive control (hCG) in Leydig cell and CYP17 tests
Testosterone Concentration ([1]; rat Leydig cells 5×10^4 cells/100 ul, 5% CO2 at 37 C): 13.14 ± 2.61 pg/mL | % increase (testosterone concentration) ([1]; versus Control, rat Leydig cells): 47.27% | Relative Value for CYP17 Gene [2]: 1.57 ± 0.282

Source: patent US20070009621A1, “Correcting systemic androgen levels using Eurycoma longifolia” (priority 2005, published 2007)
